## AlphaSeq binding of Ab-14 light chain variants to a spike HR2 peptide

Target: peptide PDVDLGDISGINAS, taken from heptad repeat 2 (HR2) of SARS-CoV-2 spike.

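The parent was found by panning a naive human phage display library on the peptide. This is the validation round: designs drawn from the data on random variants, tested in the same kind of assay. Their group label is 14L_En_HC (En: ensemble of fine-tuned language models; HC: hill climbing; a sequence that several methods proposed may carry one label only). In AlphaSeq, yeast of one mating type display the scFv and yeast of the other type display the target. Binding brings cells together so that they mate, and sequencing counts the barcode pairs among the diploids. The ratio of observed to expected reads was calibrated, replicate by replicate, on BCL2-family standards whose Kd was known from biolayer interferometry. There are six technical replicates.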

The variants keep the heavy chain, the linker and the frameworks of Ab-14 (scFv order VH, a (GGGGS)3 linker, VL).
VH: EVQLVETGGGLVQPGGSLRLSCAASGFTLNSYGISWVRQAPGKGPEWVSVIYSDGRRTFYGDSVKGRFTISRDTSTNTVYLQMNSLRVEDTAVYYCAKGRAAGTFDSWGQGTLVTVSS
VL: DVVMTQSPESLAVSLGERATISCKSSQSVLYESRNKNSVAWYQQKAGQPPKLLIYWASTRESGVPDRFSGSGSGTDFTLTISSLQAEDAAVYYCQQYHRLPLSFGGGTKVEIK

Variants are written as CDR1, CDR2 and CDR3 of the light chain (limits as in the source). Parent: KSSQSVLYESRNKNSVA, WASTRES, QQYHRLPLS. Affinities are written as log10 Kd with Kd in nM; a lower number is a better binder. Where no diploid with the target was found in that replicate, the entry reads "nd": below detection, most likely a poor binder, though not proof of it. A sequence measured in both rounds can read differently, since the two assays cover different ranges. Empty control strains, which show no peptide, gave a signal in 4% of pairings with all light chain designs; the median was 2.64 and 95% of these signals were weaker than 1.59. No background was subtracted. Also given: how often the same scFv was detected with the empty control strains, with their mean in brackets. In the paper, a design with two or fewer of six values counts as a poor binder.

CDR-L1 | CDR-L2 | CDR-L3 | log10 Kd, replicates | control signals
KLGQMTGIESHAKNSLA | DANRRES | QQYHRLPLS | 0.09 0.13 -0.20 -0.03 0.03 0.19 | 1 of 18 (1.58)
KISGYLNKESKIKNNVA | EMVNRES | QQYDRLPLS | 0.27 0.40 0.80 0.20 0.20 0.88 | 0 of 18
TFPQEVMYESHFKNNVA | QTSTREP | QQYDHLPLS | 0.68 0.56 1.31 0.46 0.81 0.56 | 0 of 18
KLSQAVNVTGKNKNSVA | ELSFREQ | QQYDRLPLS | 1.39 2.61 1.83 2.31 1.89 2.06 | 0 of 18
KLSQVTHSEKRNKNSIA | EMVTREV | QQYDRLPLS | 0.72 0.61 -0.11 0.27 0.81 0.36 | 1 of 18 (1.98)
KLSIMYQHTSKNKNNIA | ERSTREE | QQYHHLPLS | 0.55 0.31 0.10 0.23 0.36 0.29 | 1 of 18 (2.34)
KIGGVTNGISRQKNSVA | EQSTRED | QQYNRLPLS | 0.22 0.07 -0.82 -0.83 0.64 0.39 | 0 of 18
MISQSFLIGSRLKNSVA | QTSTRES | QQYDRLPLS | 0.59 1.43 1.15 1.68 0.93 1.06 | 0 of 18
MFSQGVMVGWLTRNSVA | NSETREK | QQYDRLPLI | 1.41 3.79 4.00 2.16 1.85 2.06 | 2 of 18 (2.25)
NISMSVGMTSFNKNSVA | ENSTREN | QQYDRLPLS | nd 2.71 2.00 3.60 4.10 2.21 | 0 of 18
TISQMWFLESKNKNNVA | EESTRED | QSYFRLPLS | 1.48 2.11 1.77 2.18 nd 1.95 | 0 of 18
MLLQATMYGERARNSVA | HASTRED | QQYHRLPLI | 1.00 0.72 0.70 0.65 0.86 1.15 | 1 of 18 (2.14)
HISQSFMTESVWRNSVA | HQSTREE | QQYDRLPLS | 0.80 0.08 0.48 1.07 0.24 0.28 | 1 of 18 (2.11)
MLGDTVMQGMYSRNSVA | QEETRAE | QQYHHLPLS | nd nd nd 0.24 nd 0.99 | 0 of 18
KLYQNVGTMSHNKQSIA | DMERRET | QQYHRLPLS | -0.10 -0.12 -0.41 -0.28 0.27 0.14 | 1 of 18 (2.28)
TISPSFMVESRLKNSVA | QTSTRES | QQYDRLPLS | 0.35 0.20 0.05 0.30 -0.25 0.17 | 0 of 18
KVNGLMNIEQMNSKSVA | QSSTREN | QQYHRLPLS | 0.30 0.01 -0.06 -0.18 -0.22 0.00 | 0 of 18
TISQSMLMTGLNRNSVA | QAEERLE | QQYHRLPLS | 0.68 0.26 0.12 0.20 0.15 0.40 | 0 of 18
SFSQSVLYESVHKNNVA | QTSTRES | QQYDHLPLS | 0.94 0.27 0.21 0.16 1.00 0.81 | 0 of 18
MIAMGLRGVGRNKNSVA | NAQTRES | QHYHRLPLS | 2.31 1.63 2.29 2.18 nd 2.17 | 1 of 18 (2.59)
IISQSVMFEQTLINSVA | NAQTREN | QQYHRLPLS | 0.64 0.31 0.71 0.28 0.55 0.89 | 2 of 18 (3.13)
KLSATYRYESQNKNSIA | EMSTREM | QCYHRLPLS | nd nd nd nd nd 4.18 | 0 of 18
KLGSMVLLEHGNKNNIA | QQSTREE | QQYDRLPLS | 0.38 0.72 0.12 0.34 0.41 0.78 | 1 of 18 (1.78)
KFSQSVNFFGHAINSVA | EMETREN | QQYDRLPLS | 0.93 0.53 0.63 0.57 0.53 0.85 | 1 of 18 (2.53)
TLGGVTSYEMQNVNSVA | QMTTRES | QQYHRLPLS | -0.02 -0.02 0.04 -0.17 0.04 0.37 | 0 of 18
KISQVTHSESRNKNSIA | EMVTREV | QQYDRLPLS | 0.70 0.52 0.52 0.70 0.90 0.53 | 0 of 18
HLGGLMTWESHAKNSVA | QSNTRAE | QQYHRLPLS | 0.30 0.05 0.02 -0.09 0.21 0.19 | 1 of 18 (4.88)
KLYVSTMLESHAKNSIA | DLSTRGN | QQYHRLPLS | 0.16 0.46 0.35 -0.03 0.18 -0.06 | 0 of 18
KLYLSTMLESHNKNSIA | DLSTRGN | QQYHRLPLS | 1.25 0.81 1.80 0.67 1.40 0.72 | 0 of 18
HISMSMNWLSRNKNSIA | EESTRED | QQYDRLPLS | nd 2.40 1.55 2.63 1.47 2.77 | 0 of 18
TISTSMRYESSLKNAIA | NAQTRED | QQYHRLPIS | 0.56 0.68 0.80 0.45 0.54 0.80 | 1 of 18 (2.55)
KLIQSVAMSSREKDSIA | DNSTREY | QQYHRLPLS | 1.55 2.04 2.17 1.78 2.48 2.04 | 3 of 18 (3.15)
KISQNMGETQRNKHSVA | EVSLVPS | QQYFRLPLS | 1.91 2.22 1.28 1.57 1.38 1.92 | 0 of 18
KLLGEVTGHSRNRNSVA | HNSTRED | QQYDRLPLS | 2.27 nd 2.57 2.84 2.04 2.55 | 3 of 18 (3.58)
QLLMATMQGTYNRNSVA | HAQTRND | QSYHRLPLS | nd 1.71 3.29 2.00 2.13 1.92 | 0 of 18
NFSQMVLSGSTLRNSVA | HASTRFN | QQYHRLPLI | 1.88 3.34 nd 2.23 2.81 3.43 | 0 of 18
KISQMYRYEQQNHSSIA | EANTREQ | QSYYRLPLS | nd nd nd 3.23 nd 2.39 | 0 of 18
HISQSTDLESVHKNSIA | DLMTRES | QQYHRLPLS | 0.41 0.29 0.06 0.35 0.47 0.50 | 0 of 18
KLLQTVLNGRYNRNNVA | HMTMRED | QQYFRLPLS | nd 1.74 1.30 2.15 1.51 1.34 | 0 of 18
KISQMVTYETTWHNAIA | QTSEREE | QQYHRLPLS | 1.66 1.27 1.66 2.27 1.19 1.20 | 0 of 18
ILSQSVLMGSHLKNSVA | QASTRFS | QQYHRLPLA | 0.80 1.25 0.76 1.57 1.14 1.07 | 1 of 18 (2.20)
KLGGVTSYEMQNKNSVA | QMTTRES | QQYDRLPLS | 0.12 0.34 0.09 0.28 -0.23 0.31 | 0 of 18
KISQAVNYLSRVMNSVA | DNSTRGD | QQYFRLPLS | nd nd 1.41 nd nd nd | 0 of 18
KIMQSLNYEQFTVSNVA | GQETRER | QSYHRLPLS | 2.75 1.96 1.36 2.22 1.67 1.32 | 0 of 18
TISQMFLGELRNRNSVA | QASTRES | QSYDRLPLS | 1.30 1.15 1.25 1.12 0.57 1.45 | 1 of 18 (2.02)
IISQSTLGEYHNKNSVA | QTSERGS | QQYDRLPLS | 0.67 0.59 0.63 0.30 0.49 0.79 | 2 of 18 (3.39)
KLLQTVMNGRYRRNNVA | HMTMRED | QQYFRLPLS | nd nd nd nd 2.56 2.52 | 2 of 18 (2.88)
TISGLTMMPSRAHNSVA | NTSTRYQ | QQYHRLPLS | 0.48 0.18 0.36 0.46 0.40 0.61 | 0 of 18
KLSQVTEYESHQKNNVA | DLTTRGS | QDYHRLPLS | -0.13 -0.10 -0.10 -0.01 -0.07 -0.25 | 0 of 18
IISESMLYESATHNSIA | QTSTREE | QQYHHLPLI | 0.95 0.44 0.96 0.69 0.76 1.02 | 0 of 18
MLSDLNRMGVRNTQSVA | DNSTRGE | QQYDRLPLS | 1.70 1.37 1.86 1.77 1.33 2.47 | 1 of 18 (3.00)
IFSQSVLMGNLTKNSVA | QASTRFE | QQYHRLPLI | 1.71 2.18 1.52 1.67 1.83 1.79 | 1 of 18 (2.04)

6 of these entries, quoted again:

| CDR-L1 | CDR-L2 | CDR-L3 | log10 Kd, replicates | control signals |
|---|---|---|---|---|
| KISGYLNKESKIKNNVA | EMVNRES | QQYDRLPLS | 0.27 0.40 0.80 0.20 0.20 0.88 | 0 of 18 |
| KLYLSTMLESHNKNSIA | DLSTRGN | QQYHRLPLS | 1.25 0.81 1.80 0.67 1.40 0.72 | 0 of 18 |
| NFSQMVLSGSTLRNSVA | HASTRFN | QQYHRLPLI | 1.88 3.34 nd 2.23 2.81 3.43 | 0 of 18 |
| HLGGLMTWESHAKNSVA | QSNTRAE | QQYHRLPLS | 0.30 0.05 0.02 -0.09 0.21 0.19 | 1 of 18 (4.88) |
| KISQAVNYLSRVMNSVA | DNSTRGD | QQYFRLPLS | nd nd 1.41 nd nd nd | 0 of 18 |
| TFPQEVMYESHFKNNVA | QTSTREP | QQYDHLPLS | 0.68 0.56 1.31 0.46 0.81 0.56 | 0 of 18 |

Reference: Li et al. 2023, doi:10.1038/s41467-023-39022-2. File: FLAb, binding data.